The text below walks through data of PubChem BioAssay AID720580 (National Center for Advancing Translational Sciences (NCATS), 2013).

“And” between values parts separate entries of the source, which are not always exact repeats. Equal values may be shown once. This is a selection; strong and weak results do not stand in their true shares. Some results for these compounds are left out of this collection, so the calls shown say nothing about other tests. Inconclusive results are not listed. The source made the active and inactive calls. Calls come from the whole dose curve; tested in A549 cells.
% is set by controls: 0 for no effect and ±100 for the full control effect.

The nature of this assay: qHTS for Stage-Specific Inhibitors of Vaccinia Orthopoxvirus: Venus Reporter Primary qHTS. Note: nearly all actives have a fitted effect of over 30% in size. The following applies: Vaccinia virus Venus reporter expression, fluorescence; at 36.5 µM (top of the series). On the technique in general: In qHTS, concentration-response curves come from the screen itself.
As for `O=C(CBr)c1ccc(Cl)cc1`, the activity change, negative = inhibition is inactive: -4.5%.
For `CN(C)C1(CNC(=O)c2ccc(Br)cc2)CCCCC1`, the activity change, negative = inhibition was inactive: -6.21%.
The same measure for `COc1cccc(C(=O)NCC2(N3CCCCC3)CCCCC2)c1`: inactive: 6.9%.
To `COc1ccc(Cl)cc1C(=O)NCC1(N(C)C)CCCCC1` belongs inactive: 6.88%.
To `COc1ccc(C(=O)NCC2(N(C)C)CCCCC2)cc1Cl` belongs inactive: -4.67%; to `O=C(NCC1(N2CCCCC2)CCCCC1)c1cccc(Cl)c1`, inactive: 0%; to `COc1cccc(C(=O)NCC2(N3CCOCC3)CCCCC2)c1`, inactive: -1.78%.
Regarding `O=C(OC1CN2CCC1CC2)C(CO)(c1ccccc1)c1ccccc1` (configuration not stated), the activity change, negative = inhibition was inactive: -16.4%.
To `CC(C)COc1ccc(C(=O)NCC2(N(C)C)CCCCC2)cc1` belongs inactive: -6.71%.
The same measure for `C=C(C)C#CC(O)(C(=O)OC1CCN(C)CC1)c1ccccc1` (configuration not stated): inactive: -4.63%; for `Cc1cccc(C(=O)NCC2(N(C)C)CCCCC2)c1`: inactive: -14.5%.
Consider `COc1cc(C(=O)NCC2(N(C)C)CCCCC2)cc(OC)c1OC`, for which the activity change, negative = inhibition is inactive: -1.97%.
To `CC(C)Oc1ccc(C(=O)NCC2(N(C)C)CCCCC2)cc1` belongs inactive: -13.3% and inactive: -12.7%; to `O=C(OCCN1CCCC1)C(O)(c1ccccc1)c1ccccc1`, inactive: -0.136%; to `CN(C)c1cccc(C(=O)NCC2(N(C)C)CCCCC2)c1`, inactive: 3.47%.
As to `O=C(NCC1(N2CCCCC2)CCCCC1)c1cc([N+](=O)[O-])ccc1Cl`, the activity change, negative = inhibition was inactive: -8.41%.
The same measure for `CN(C)C1(CNC(=O)c2cccc(Cl)c2)CCCCC1`: inactive: -21.2%; for `CCN(CC)CC(C)C(C)OC(=O)C(O)(c1ccccc1)c1ccccc1` (configuration not stated): inactive: -2.01%.
To `CC(C)N1C(=O)CC2(CCN(CCOC(=O)C(O)(c3ccccc3)c3ccccc3)CC2)C1=O` belongs inactive: -22.5%; to `Cc1ccc(C(=O)NCC2(N3CCCCC3)CCCCC2)cc1`, inactive: -11.6%; to `CN(C)C1(CNC(=O)c2ccccc2F)CCCCC1`, inactive: 2.35%.
To `Cc1ccccc1C(=O)NCC1(N2CCCCC2)CCCCC1` belongs inactive: -9.09%.
For `CN(C)C1(CNC(=O)c2ccccc2[N+](=O)[O-])CCCCC1`, the activity change, negative = inhibition was inactive: 0.243%.
To `CN(C)c1ccc(C(=O)NCC2(N(C)C)CCCCC2)cc1` belongs inactive: -9.25%; to `CN(C)C1CCCC1OC(=O)C(O)(c1ccccc1)c1ccccc1` (configuration not stated), inactive: -2.34%.
Turning to `CCCCOc1ccccc1C(=O)NCC1(N(C)C)CCCCC1`, the activity change, negative = inhibition was inactive: -4.95%.
The same measure for `C=CCN1CCN(CCOC(=O)C(O)(c2ccccc2)c2ccccc2)CC1`: inactive: -11.6%.
The same measure for `O=C(NCC1(N2CCCCC2)CCCCC1)c1cc(F)c(F)cc1Cl`: inactive: -5.45%; for `CCOc1cccc(C(=O)NCC2(N(C)C)CCCCC2)c1`: inactive: 2.97%.
Regarding `CCN1CCCC(OC(=O)C2(O)c3ccccc3C=Cc3ccccc32)C1` (configuration not stated), the activity change, negative = inhibition is inactive: -13.9%.
To `Cc1cc(C(=O)NCC2(N3CCCCC3)CCCCC2)ccc1[N+](=O)[O-]` belongs inactive: 6.8%.
To `O=C(NCC1(N2CCCCC2)CCCCC1)c1cccc(Br)c1` belongs inactive: 6.51%.
